These results are taken from patent publication US6855872B2 (priority 1997, dated 2005).

Conditions in all cases: Nicotiana tabacum
Data set [1] can be described thus: in vitro.
A short description of data set [2]: in vitro. The source holds these as a separate data set.
Data set [3] in a line: in vitro. The source holds these as a separate data set.

For the compound `CC1=C[C@H]2O[C@@H]3[C@H](O)C[C@](C)([C@@]2(CO)[C@H](O)C1=O)[C@]31CO1` [DON, deoxynivalenol], the viability in data set [1] is 18%; in data set [2], below 10%; in data set [3] it was 56%.

For orientation: viability means a per cent measure of how many cells are alive, often set against a control. A lower viability goes with more harm to the cells.
